{
  "source": "patent US11505592B2",
  "about": "“Diagnosis and therapy of multiple sclerosis” (PRINDEX S.R.L., priority 2015, dated 2022)",
  "system": "5HT2a receptor downstream signaling in MO3-13 cells",
  "assay": "Western blotting of proteins downstream of the 5HT2a receptor in MO3-13 cells",
  "type": "cell-based, human",
  "conditions": "risperidone 10 uM 30 min preincubation; IgG 200 μg/ml 30 min",
  "description": "The same membrane was also incubated with α-Tubulin antibody to show the protein loading.\nWestern blotting analysis of DUOX1/2 expression levels in MO3-13 cells harvested for 18 h in medium containing 0.2% FBS, preincubated with DDSK (50 uM) for 30 min in serum-free medium and then stimulated for 30 min with IgG (200 μg/ml) purified from serum of Control (IgCtr) or MS (IgMS) patients.\nWestern blotting analysis of P-ERK1/2 expression levels in MO3-13 cells harvested for 18 h in medium containing 0.2% FBS, preincubated with DDSK (50 uM) for 30 min in serum-free medium and then stimulated for 30 min with IgG (200 μg/ml) purified from serum of Control (Ig Ctr) or MS (IgMS) patients.\nWestern blotting analysis of NOX3 expression levels in MO3-13 cells harvested for 18 h in medium containing 0.2% FBS, preincubated with DDSK (50 uM) for 30 min in serum-free medium and then stimulated for30 min with IgG (200 μg/ml) purified from serum of Control (IgCtr) or MS (IgMS) patients. […]\nTotal cells lysates were obtained in RIPA buffer (50 mM Tris-HCl, pH 7.5, NaCl 150 mM, 1% NP40, 0.5% deoxycholate, 0.1% SDS) containing 2.5 mM Na-pyrophosphate, 1 mM β-glycerophosphate, 1 mM NaVO4, 1 mM NaF, 0.5 mM PMSF, and a cocktail of protease inhibitors (Roche, USA). […] After washing with TBST, peroxidase activity was detected with the ECL system (GE-Healthcare, UK). […]",
  "data": [
    {"smiles": "Cc1nc2n(c(=O)c1CCN1CCC(c3noc4cc(F)ccc34)CC1)CCCC2", "note": "[risperidone, reference compound]", "values": [
      {"measurement": "induction of P-ERK1/2 levels by IgG from MS patients in the presence of antagonist", "value": "failed to induce P-ERK1/2 levels"}
    ]}
  ]
}
